Laboratory results from US11202854B2, “Disintegrin variants and uses thereof” (National Taiwan University, priority 2017, dated 2021).

Sequences of proteins named here, by UniProt entry; tags and fusion partners are left off. Residues count along the entry.
UniProt P05106, 27-788: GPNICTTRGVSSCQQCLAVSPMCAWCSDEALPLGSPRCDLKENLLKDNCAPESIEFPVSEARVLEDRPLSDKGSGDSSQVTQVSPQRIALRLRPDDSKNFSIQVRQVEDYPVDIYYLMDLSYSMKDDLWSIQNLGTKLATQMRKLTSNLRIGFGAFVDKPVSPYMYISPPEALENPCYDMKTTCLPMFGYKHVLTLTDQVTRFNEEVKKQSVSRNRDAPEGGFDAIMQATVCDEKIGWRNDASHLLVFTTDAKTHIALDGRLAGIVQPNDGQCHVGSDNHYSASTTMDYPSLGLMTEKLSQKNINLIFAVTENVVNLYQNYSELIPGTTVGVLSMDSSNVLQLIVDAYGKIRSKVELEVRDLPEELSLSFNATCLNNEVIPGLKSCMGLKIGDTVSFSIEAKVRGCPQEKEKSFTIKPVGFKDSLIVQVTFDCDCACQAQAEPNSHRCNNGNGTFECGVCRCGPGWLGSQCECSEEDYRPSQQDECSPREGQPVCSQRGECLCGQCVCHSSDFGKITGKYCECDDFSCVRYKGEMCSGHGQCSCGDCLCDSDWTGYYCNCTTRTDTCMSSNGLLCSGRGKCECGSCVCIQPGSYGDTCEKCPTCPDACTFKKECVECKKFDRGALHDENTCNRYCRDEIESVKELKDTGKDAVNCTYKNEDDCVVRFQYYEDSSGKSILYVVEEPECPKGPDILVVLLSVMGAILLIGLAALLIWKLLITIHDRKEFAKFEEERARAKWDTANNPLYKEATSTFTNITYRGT
UniProt P08514, 32-887 limits assumed: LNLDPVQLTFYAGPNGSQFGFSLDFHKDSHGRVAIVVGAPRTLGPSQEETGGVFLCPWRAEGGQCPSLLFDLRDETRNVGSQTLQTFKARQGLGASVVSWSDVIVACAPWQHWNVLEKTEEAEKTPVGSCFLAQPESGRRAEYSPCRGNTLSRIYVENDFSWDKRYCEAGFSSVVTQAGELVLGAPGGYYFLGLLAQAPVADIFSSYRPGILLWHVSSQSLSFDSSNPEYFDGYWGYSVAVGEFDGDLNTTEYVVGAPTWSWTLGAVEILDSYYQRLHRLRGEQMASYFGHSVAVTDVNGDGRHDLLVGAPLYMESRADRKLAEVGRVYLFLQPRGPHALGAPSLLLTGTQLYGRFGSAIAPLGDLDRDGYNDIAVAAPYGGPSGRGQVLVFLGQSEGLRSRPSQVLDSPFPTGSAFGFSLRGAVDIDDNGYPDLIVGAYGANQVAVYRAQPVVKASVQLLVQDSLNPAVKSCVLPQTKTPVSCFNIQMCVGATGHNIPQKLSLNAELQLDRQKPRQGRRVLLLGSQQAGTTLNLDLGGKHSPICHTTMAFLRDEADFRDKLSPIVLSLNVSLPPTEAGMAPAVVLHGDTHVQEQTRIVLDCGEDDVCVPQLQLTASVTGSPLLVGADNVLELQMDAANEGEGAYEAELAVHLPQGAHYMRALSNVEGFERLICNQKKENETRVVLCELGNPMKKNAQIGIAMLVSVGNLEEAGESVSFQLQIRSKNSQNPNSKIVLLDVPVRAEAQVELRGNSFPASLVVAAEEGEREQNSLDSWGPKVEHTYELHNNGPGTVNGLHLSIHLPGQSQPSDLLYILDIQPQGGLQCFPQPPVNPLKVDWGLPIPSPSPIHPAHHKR
UniProt P08514, 891-1039 partner limits assumed: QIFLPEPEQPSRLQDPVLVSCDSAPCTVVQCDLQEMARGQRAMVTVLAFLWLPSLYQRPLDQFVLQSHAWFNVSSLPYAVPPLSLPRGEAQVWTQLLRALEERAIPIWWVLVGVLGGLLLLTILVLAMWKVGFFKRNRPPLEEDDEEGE

Target: T1, integrin αIIbβ3 (Homo sapiens, UniProt P05106+P08514)
T1 construct: host or cells: CHO (Chinese hamster ovary) cells
Experiment: Cell adhesion assay: CHO-αIIbβ3 cells to fibrinogen
Assay type: cell-based
Conditions: Table 4; CHO-αIIbβ3 cells to immobilized fibrinogen
Experimental: A cell adhesion assay was used to determine the inhibitory activity of Rho, TMV, and their variants and was conducted according to previously described protocols. 96-well microtiter plates (Costar; Corning) were coated with 100 μL PBS buffer containing 200 μg/mL fibrinogen or 50 μg/mL fibronectin, and incubated overnight at 4° C. Non-specific protein binding sites were blocked by incubating each well with 200 μL of heat-denatured 1% bovine serum albumin (BSA) (Calbiochem) at room temperature for 1.5 h. The heat-denatured BSA was discarded and each well was washed twice with 200 μL PBS.
Chinese hamster ovary (CHO) cells that expressed integrins αvβ3 (CHO-αvβ3) and αIIbβ3 (CHO-αIIbβ3) were kindly provided by Dr. Y. Takada (Scripps Research Institute) and maintained in Dulbecco's modified Eagle's medium (18, 27). Human erythroleukemia K562 cell was purchased from ATCC and cultured in Roswell Park Memorial Institute (RPMI)—1640 medium containing 10% fetal bovine serum (FBS). Harvested K562 cells were resuspended in RPMI-1640 medium containing 5% FBS. […]
The adhesions of CHO-αIIbβ3 cells to fibrinogen, CHO-αvβ3 cells to fibrinogen, and K562 cells to fibronectin were used to determine the inhibitory activities of tested protein to integrins αIIbβ3, αvβ3, and α5β1. […] The resulting absorbance was read at 600 nm and the readings were correlated with the number of adhering cells. […]

Q: Which IC50 does the source give for Rhodostomin here?
A: 52.2 ± 8.2 nM
